Source: US20150073050A1, “CO-ADMINISTRATION OF OMEPRAZOLE AND EICOSAPENTAENOIC ACID OR A DERIVATIVE THEREOF” (Amarin Pharmaceuticals Ireland Limited, priority 2013, published 2015)

Experiment: Phase 1 open-label crossover drug-drug interaction study: steady-state plasma pharmacokinetics of omeprazole without and with ethyl eicosapentaenoate
Conditions: omeprazole alone 40 mg daily, day 7; median (min, max)
Procedure: Eligibility assessments and clinical laboratory testing were performed within a 28-day screening period. All eligible subjects received the same treatment. […] On days 12-29, subjects received oral doses of 4 g ethyl eicosapentaenoate (2 liquid-filled 1 g gelatin capsules, twice daily), with or following the morning and evening meals. Treatments were self-administered when subjects were away from the study site, and by study personnel during scheduled visits.
Eligible subjects were healthy nonsmoking men and women between the ages of 19 and 55 years with a body mass index >18 and ≦35 kg/m^2 and in good health as determined by medical history and medical examination. Women who were pregnant, nursing, or planning a pregnancy were excluded; female subjects of childbearing potential were required to use an acceptable method of birth control. Subjects were prohibited from ingesting medications and supplements that contained EPA and/or docosahexaenoic acid (DHA), fish meals, foods fortified with EPA and/or DHA, lipid-medications and dietary supplements with known or potential lipid-altering effects including statins, niacin >200 mg/day, fibrates, ezetimibe, and bile acid sequestrants or medications or supplements that may influence the measurements of EPA concentrations in plasma until after the last PK sample collection. […]

For `COc1ccc2[nH]c([S+]([O-])Cc3ncc(C)c(OC)c3C)nc2c1` (stereo not shown) [Omeprazole, omeprazole], the Tmax of omeprazole was 1.5 (1.0, 6.0) h.
